Test results reported in paper PMC4753485, “Selective potentiation of 2-APB-induced activation of TRPV1–3 channels by acid” (Scientific Reports, 2016).
Like-named read-outs stand apart in the source and are kept apart here.

Experiments:
[1] = target: TRPV3 (Mus musculus, UniProt Q8K424); details: 5 μM 2-APB; inside-out; +60 mV; after sensitization with 100 μM 2-APB
Source text: (§1) Full-length cDNA for murine TRPV3 was isolated and subcloned into pIRES2-EGFP, as previously described. The wild-type rat TRPV1, TRPV2 and TRPM8 cDNAs were generously provided by Dr. Feng Qin (State University of New York at Buffalo, Buffalo). All mutations were made using either QuikChange® XL site-directed mutagenesis kit (Agilent Technologies) or the overlap-extension polymerase chain reaction (PCR) method as previously described. The resulting mutations were verified by DNA sequencing. HEK293 cells were grown in DMEM containing 4.5 mg/ml glucose, 10% heat-inactivated fetal bovine serum, 50 units/ml penicillin, and 50 μg/ml streptomycin. For electrophysiological experiments, cells were seeded in 35 mm culture dishes and transfected with the desired DNA constructs using Lipofectamine 2000 (Invitrogen) following the protocol provided by the manufacturer. Stable TRPV3 expressing cells were selected in the G418-containing medium. For intracellular Ca^2+ measurements, cells were transfected with the desired DNA constructs in the wells of 96-well plates without pre-seeding using Lipofectamine 2000 (Invitrogen) as described.
(§2) Transfected HEK293 cells were reseeded on 12 mm round glass coverslips (Warner Instruments) one day after transfection. Whole-cell recordings were performed the following day. Recording pipettes were pulled from borosilicate glass capillaries (Sutter or World Precision Instruments) to 2–4 MΩ when filled with internal solution containing (in mM) 140 CsCl, 2.0 MgCl2, 5 EGTA, 10 HEPES, pH 7.4. Bathing solution contained (in mM) 140 NaCl, 5 KCl, 5 EGTA, 1 MgCl2, 10 glucose and 10 HEPES, pH 7.4. Isolated cells were voltage clamped in the whole-cell mode using an EPC10 amplifier (HEKA Instruments Inc). Voltage commands were made from the Patchmaster program, and the currents were recorded at 5 kHz. […] Whole-cell recordings were typically sampled at 5 kHz and filtered at 1 kHz. The compensation of pipette series resistance and capacitance were taken by using the built-in circuitry of the amplifier (>80%) to reduce voltage errors. Exchange of external solutions was performed using a gravity-driven local perfusion system (Automate Scientific). Channel activators were diluted into the recording solution at the desired final concentrations and applied to the cell through perfusion. As determined by the conductance tests, the solution around a patch under study was fully controlled by the application of a solution with a flow rate of 100 μl/min or greater. […] The acidic solutions contained (in mM): 140 NaCl, 5 KCl, 5 EGTA, 1 MgCl2, 10 glucose, and 10 MES, with pH adjusted to desired values by NaOH. For inside-out recordings, both the pipette solution and bath solution contained (in mM) 140 NaCl, 5 KCl, 5 EGTA, 1 MgCl2, 10 HEPES, pH 7.4. Excised patches were held constantly at desired potentials while compounds were repetitively applied and washed from the bath. For recordings from HEK293 cells under acidic pH conditions, the solution also contained 50 μM amiloride as an inhibitor of the native ASIC channels. Camphor was purchased from Acros (New Jersey, USA). Diphenyl borate (DPB) was synthesized by Beijing Realchem Technology Company (Beijing, China). Other chemicals were purchased from Sigma (Sigma, St. Louis, MO). Water-insoluble reagents were dissolved in either 100% ethanol or DMSO to make stock solutions and were diluted in the bathing solution at appropriate concentrations before experiments. […] All experiments except those for heat activation were performed at room temperature (22–24 °C).

[2] = target: mTRPV3(E610Q) (Mus musculus, UniProt Q8K424, E610Q); details: E610Q mutant
Source text: as §1, §2

[3] = target: TRPV2 (Rattus norvegicus, UniProt Q9WUD2); details: 300 μM 2-APB; for Current relative to that at pH 7.4, cytoplasmic side: inside-out, +60 mV
Source text: as §1, §2

[4] = target: TRPM8 (Rattus norvegicus, UniProt Q8R455); details: pH 5.5 versus pH 7.4
Source text: as §1, §2

[5] = target: T1, mouse TRPV3 (Mus musculus, UniProt Q8K424); assay: Whole-cell recordings of TRPV3 currents in HEK293 cells; assay type: cell-based; details: for Peak current amplitude at pH 5.5 relative to pH 7.4: after sensitization with 100 μM 2-APB
T1 construct: Full-length cDNA for murine TRPV3 was isolated and subcloned into pIRES2-EGFP; expressed in transfected cells; host or cells: HEK293 (transient)
T1 sequence (Q8K424 1-791): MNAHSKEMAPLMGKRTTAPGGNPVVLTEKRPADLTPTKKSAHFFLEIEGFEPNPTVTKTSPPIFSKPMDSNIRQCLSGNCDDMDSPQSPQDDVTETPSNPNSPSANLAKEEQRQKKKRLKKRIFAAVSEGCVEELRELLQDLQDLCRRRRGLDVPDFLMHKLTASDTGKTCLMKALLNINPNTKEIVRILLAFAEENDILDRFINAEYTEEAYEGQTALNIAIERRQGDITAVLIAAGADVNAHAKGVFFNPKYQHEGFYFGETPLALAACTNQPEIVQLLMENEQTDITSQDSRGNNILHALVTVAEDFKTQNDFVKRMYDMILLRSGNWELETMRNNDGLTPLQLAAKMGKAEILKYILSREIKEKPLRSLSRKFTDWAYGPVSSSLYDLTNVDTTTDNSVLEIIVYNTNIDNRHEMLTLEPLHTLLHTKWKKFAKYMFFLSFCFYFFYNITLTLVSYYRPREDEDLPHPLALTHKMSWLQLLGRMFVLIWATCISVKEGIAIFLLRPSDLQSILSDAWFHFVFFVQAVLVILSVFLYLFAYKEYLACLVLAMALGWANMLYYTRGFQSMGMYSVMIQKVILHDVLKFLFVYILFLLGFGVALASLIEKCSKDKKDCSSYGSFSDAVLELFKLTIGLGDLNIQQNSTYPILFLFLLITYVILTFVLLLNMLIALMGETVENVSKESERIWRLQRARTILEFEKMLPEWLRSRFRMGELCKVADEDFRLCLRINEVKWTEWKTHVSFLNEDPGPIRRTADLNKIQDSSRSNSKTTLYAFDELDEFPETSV
Experimental: The resulting mutations were verified by DNA sequencing.
Whole-cell recordings were performed the following day. […] All pharmacological experiments met this criterion. […] Camphor was purchased from Acros (New Jersey, USA).

For `NCCOB(c1ccccc1)c1ccccc1` [2-APB, 2-aminoethoxydiphenyl borate], which “Current at pH 5.5 relative to pH 7.4, cytoplasmic side” value [1] is on record?
Its value is “about 8 fold”.

What about the “Current amplitude at pH 5.5 relative to pH 7.4” value ([2]; 5 μM 2-APB) of the same compound?
Its value is ~7 fold.

What about the “Current amplitude at pH 5.5 relative to pH 7.4” value ([2]; 30 μM 2-APB) of the same compound?
Its value is “about 2 fold”.

What about the “Whole-cell current relative to that at pH 7.4” value ([3]; pH 5.5) of the same compound?
The value was 13 fold.

And the “Current relative to that at pH 7.4, cytoplasmic side” value ([3]; pH 5.5)?
The value was ~19 fold.

And the “Whole-cell current relative to that at pH 7.4” value ([3]; pH 6.0)?
Its value is 8 fold.

What about the “Current relative to that at pH 7.4, cytoplasmic side” value ([3]; pH 6.0) of the same compound?
The value was “approximately 15 fold”.

And the “Reduction of IC50 by low pH” value [4]?
Its value is “about 7 fold”.

What about the “Peak current amplitude at pH 5.5 relative to pH 7.4” value ([5]; 5 μM 2-APB) of the same compound?
Its value is ~10 fold.

What about the “Peak current amplitude at pH 5.5 relative to pH 7.4” value ([5]; 30 μM 2-APB) of the same compound?
Its value is ~ 2 fold.

And the “Reduction of EC50 by low pH” value ([5]; pH 5.5 versus pH 7.4)?
Its value is “about 12 fold”.
